Values of other authors, collected in patent publication US9233106B2, “Inhibition of beta-amyloid peptide aggregation” (CORNELL RESEARCH FOUNDATION, INC., priority 2006, dated 2016).

Conditions: conscious rats; cited from earlier work

COC(=O)C1C(O)CC2CCC1N2C (stereo not shown)
lowest daily dose required to elicit slight toxic manifestations: 298.2 ± 49.6 mg/kg
